For data set [1] the following is noted: rats, oral, 50 mg/kg, plasma metformin.
Data set [2] relates to rat hepatocyte primary cultures. The experiment in a line: In vitro cleavage assay on rat hepatocyte primary cultures. It counts as in vitro ADME. The conditions noted are these: rat hepatocyte culture, over 24 hours. Here is the method:
A primary culture of rat hepatocytes, which are close to those of humans for metabolism studies, is used, in a HEPES medium to which a known amount of compound A′V′C′, of the order of one microgram, is added. The products are left in contact for 6 hours, and samples are taken, at 1 hour, 2 hours and 4 hours, on which the supernatant is isolated and the hepatocytes in the pellet are lysed. In these media, the concentrations of active principles A (biguanide) and C (transporter) released are measured. As previously, it is possible to calculate the Vmax and Km of the enzymes involved in the metabolism.
A second assay is carried out on a rat hepatocyte culture, according to the method described above. A slow release of arginine over 24 hours is observed.

“arginine hemisuccinimide-metformin hemisuccinate” yielded a concentration peak in data set [1] of 2900 ng/mL. Besides, the release of arginine result in data set [2] is reported as “slow release”.

The values are drawn from US7265156B2 (Dospharma, priority 2000, dated 2007).
